For assay [1], the target named is T1, NTS1R (Homo sapiens, UniProt P30989). The assay can be described thus: radioligand competition binding with [3H]UR-MK300 at intact HT-29 colon carcinoma cells. The note with it: [3H]UR-MK300, intact HT-29 cells, 23 °C; read-out: NTS1R pK i ± SEM (converted). A general note: Loss of bound radioactivity is the signal in a displacement assay; it reports binding, not function.

Amino acid sequences for entries named in this document (tags omitted).
UniProt P30989, whole entry: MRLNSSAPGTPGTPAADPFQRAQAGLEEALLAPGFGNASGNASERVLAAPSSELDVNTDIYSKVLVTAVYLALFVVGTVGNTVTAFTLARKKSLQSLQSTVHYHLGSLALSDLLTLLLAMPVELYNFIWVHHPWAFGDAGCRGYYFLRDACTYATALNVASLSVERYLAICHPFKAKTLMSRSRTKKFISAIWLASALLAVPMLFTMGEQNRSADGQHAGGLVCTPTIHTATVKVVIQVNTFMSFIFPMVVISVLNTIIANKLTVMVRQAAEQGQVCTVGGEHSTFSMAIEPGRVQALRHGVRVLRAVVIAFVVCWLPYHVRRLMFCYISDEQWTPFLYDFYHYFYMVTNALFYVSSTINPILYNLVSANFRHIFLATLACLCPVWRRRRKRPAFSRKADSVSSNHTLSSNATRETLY

Assay [2] addresses T1, NTS1R. The experiment in a line: cell-based. The note with it: NTS1R pEC50 ± SEM.

For `CC[C@H](C)[C@H](NC(=O)[C@H](NC(=O)[C@@H]1CCCN1C(=O)[C@H](CCCNC(=N)N)NC(=O)[C@H](CCCNC(=N)N)NC)C(C)(C)c1ccc(O)cc1)C(=O)N[C@@H](C[Si](C)(C)C)C(=O)O` [16b, N ^α-Methyl-Arg-Arg-Pro-β,β-dimethyl-D-Tyr-Ile-β-trimethylsilyl-Ala Tris(hydrotrifluoroacetate)], the Ki in assay [1] was 12.3 nM. As for `CC[C@H](C)[C@H](NC(=O)[C@H](Cc1ccc(O)cc1)NC(=O)[C@@H]1CCCN1C(=O)[C@H](CCCNC(=N)N)NC(=O)[C@H](CCCNC(=N)N)NC)C(=O)N[C@@H](C[Si](C)(C)C)C(=O)O` [compound 15, N ^α-Methyl-Arg-Arg-Pro-Tyr-Ile-β-trimethylsilyl-Ala Tris(hydrotrifluoroacetate)], the Ki in assay [1] was 0.0372 nM.

Turning to `CC[C@H](C)[C@H](NC(=O)[C@@H](NC(=O)[C@@H]1CCCN1C(=O)[C@H](CCCNC(=N)N)NC(=O)[C@H](CCCNC(=N)NC(=O)NCCCCNC(=O)CCCCCN1\C(=C/C=C/C=C/C2=[N+](CCCCS(=O)(=O)[O-])c3ccccc3C2(C)C)C(C)(C)c2cc(S(=O)(=O)O)ccc21)NC)C(C)(C)c1ccc(O)cc1)C(=O)N[C@@H](C[Si](C)(C)C)C(=O)O` [compound 21, N ^α-Methyl-N ^ω-{[4-(N-{6-3H-[2-(5–3H-(1-(4-sulfonatobutyl)-3,3-dimethyl)indol-2-ylidenepent-1,3-dienyl)-3,3-dimethyl-5-sulfo]indol-1-ium-1-yl}hexanoyl)-aminobutyl]aminocarbonyl}Arg-Arg-Pro-β,β-dimethyl-L-Tyr-Ile-β-trimethylsilyl-Ala Tris(hydrotrifluoroacetate)], the Ki in assay [1] was 0.0912 nM. Also, in assay [2], it took 1.29 nM to reach a half-maximal effect (EC50).

For the origin of these results see article PMC12481580 (Journal of Medicinal Chemistry, 2025).
